Measured values from publication PMC9412555, “Benzothiazole Derivatives Endowed with Antiproliferative Activity in Paraganglioma and Pancreatic Cancer Cells: Structure–Activity Relationship Studies and Target Prediction Analysis” (Pharmaceuticals, 2022).

System: HFF-1
Assay: MTT cell viability assay, normal fibroblasts HFF-1
Format: cell-based, human
Details: 72 h
Experimental: Compounds 4a–p were submitted to a preliminary MTT assay at a one-point screening concentration of 75 μM for 72 h, including 2b as a reference compound (Figure 3). […] The presence of the electron-donating methoxy group decreased the activity of 2b, in both the para and meta positions. […] Specifically, these compounds, namely 4d, 4e, 4f, 4h, 4i, 4j, 4k, 4l, and 4m, were tested at concentrations of 3, 6, 12 and 24 µM for 72 h. In addition, the nine compounds, together with 2b, were tested against human fibroblasts HFF-1, in order to evaluate their selectivity against tumor cells, as compared to normal cells. Effects on cancer or normal cell viability were extrapolated from concentration–response curves and are expressed as IC50 values in Table 2.
Pancreatic cancer (AsPC-1, BxPC-3, and Capan-2), paraganglioma (PTJ86i and PTJ64i) and normal fibroblast (HFF-1) cell lines were cultured as previously described. All compounds were dissolved in DMSO (stock solutions) and then diluted in culture media to the final working concentrations. […]
IC50 values were extrapolated from concentration–response curves and calculated using the CompuSyn software. The interactions between compound 4l and gemcitabine were assessed by calculating the CI values using the CompuSyn software. […] SI values were calculated as previously described. […]

SMILES: Nc1ccn([C@@H]2O[C@H](CO)[C@@H](O)C2(F)F)c(=O)n1 [GEM, gemcitabine, reference compound]
- Inhibition Rate of Cell Viability (HFF-1, GEM 0.1 µM): 27.39%
- Inhibition Rate of Cell Viability (HFF-1, GEM 1 µM): 25.43%
